Values of other authors in patent US11236147B2, “Methods and compositions for the inhibition of TRPV4” (CHILDREN'S MEDICAL CENTER CORPORATION, priority 2013, dated 2022).

Protein sequences, listed by entry. Tags and fused reporters are not part of them.
UniProt Q9HBA0, whole entry: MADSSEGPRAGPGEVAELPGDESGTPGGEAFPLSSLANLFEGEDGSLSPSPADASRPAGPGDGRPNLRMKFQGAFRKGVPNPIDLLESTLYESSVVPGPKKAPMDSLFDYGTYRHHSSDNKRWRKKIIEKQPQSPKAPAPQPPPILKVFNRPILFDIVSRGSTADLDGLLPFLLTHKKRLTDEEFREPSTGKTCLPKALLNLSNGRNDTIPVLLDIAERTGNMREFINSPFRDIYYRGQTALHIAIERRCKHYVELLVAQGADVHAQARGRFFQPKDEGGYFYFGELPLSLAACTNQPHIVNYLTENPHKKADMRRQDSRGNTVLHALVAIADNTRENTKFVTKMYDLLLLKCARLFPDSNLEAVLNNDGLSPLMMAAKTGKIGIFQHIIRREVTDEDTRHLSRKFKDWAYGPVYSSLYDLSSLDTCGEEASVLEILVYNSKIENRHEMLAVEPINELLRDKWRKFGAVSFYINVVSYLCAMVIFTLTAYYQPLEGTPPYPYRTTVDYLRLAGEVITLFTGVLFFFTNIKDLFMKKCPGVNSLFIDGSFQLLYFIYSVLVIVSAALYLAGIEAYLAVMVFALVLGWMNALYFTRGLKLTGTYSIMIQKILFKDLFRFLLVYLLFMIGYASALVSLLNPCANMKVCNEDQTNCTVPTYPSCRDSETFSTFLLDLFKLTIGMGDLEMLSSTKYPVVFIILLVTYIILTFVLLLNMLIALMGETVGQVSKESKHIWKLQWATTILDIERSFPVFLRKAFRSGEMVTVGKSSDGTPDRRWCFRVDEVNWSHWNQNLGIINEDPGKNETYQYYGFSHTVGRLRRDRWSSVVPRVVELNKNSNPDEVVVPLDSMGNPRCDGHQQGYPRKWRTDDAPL

Molecular target: T1, TRPV4 (Homo sapiens, UniProt Q9HBA0)
T1 construct: Transient increases in intracellular calcium were detected quickly after force application in HUVE cells treated with control siRNA; endogenous in cells; host or cells: HUVE cells (ATCC) treated with control or CD98 siRNA
Settings: human lung-on-a-chip, in vitro; cited from earlier work

With “IL2: inducer of pulmonary edema in the lung-on-a-chip model” as the substance, how does the “clinical manifestations of pulmonary edema (vascular leakage, fibrin clot formation, compromised oxygen transport)” value read?
Its value is “produces clinical manifestations of pulmonary edema”.
